Data taken from patent publication US8835392B2, “Mimetic peptides and the use thereof in the form of 20S, 26S and immunoproteasome inhibitors” (Technische Universität, priority 2005, dated 2014).

Key:
[1] = target: 20S proteasome β1 caspase-like activity (LLE-MCA) (Homo sapiens, UniProt P28072+Q99436); test: Protease assay, caspase-like activity of isolated 20S proteasomes; conditions: read-out: IC50 β1 Caspase-like (E); isolated 20S proteasome; LLE-MCA 50 μM; 15 min pre-incubation
[2] = target: 20S proteasome β5 chymotrypsin-like activity (Suc-LLVY-AMC) (Homo sapiens, UniProt P20618+P28074); test: Protease assay, chymotrypsin-like activity of isolated 20S proteasomes (LLVY substrate); type: biochemical; conditions: read-out: IC50 β5 Chymotrypsin-like (Y); isolated 20S proteasome; LLVY-MCA 50 μM; 15 min pre-incubation
[3] = target: proteasomal activity in HeLa-cells (Homo sapiens, UniProt P20618+P28074); test: Intracellular inhibition of proteasomes in cultivated HeLa-cells; conditions: 1 μM

IC50 [1]: > 10 µM
IC50 [2]: > 10 µM
reduction of the specific proteasomal activity in cells [3]: markedly reduction
SMILES: CC(C)C[C@@H](CO)NC(=O)[C@H](CC(=O)OC(C)(C)C)NC(=O)[C@H](CC(C)C)NC(=O)OC(C)(C)C
